Measurements taken from patent US10137210B2, “Thioflavin derivatives for use in antemortem diagnosis of Alzheimer's disease and in vivo imaging and prevention of amyloid deposition” (UNIVERSITY OF PITTSBURGH—OF THE COMMONWEALTH SYSTEM OF …, priority 2000, dated 2018).

Tests used:
[1] = In vivo brain uptake and retention in mice; conditions: for 2:30 min ratio / 2 min (% ID/g) / 30 min (% ID/g): Table 1 lower part; for 2 min (% ID/g): brain uptake at 2 min; for 30 min (% ID/g): brain uptake at 30 min
[2] = Partitioning between octanol and phosphate-buffered saline (logP); conditions: Table 1, upper part; value marked (est.)

2:30 min ratio [1]	2 min (% ID/g) [1] [% ID/g]	30 min (% ID/g) [1] [% ID/g]	Mouse Brain Uptake @ 2 min ([1]; 2 min, 11C-labeled compound) [% ID/g * kg]	Mouse Brain Uptake @ 30 min ([1]; 30 min, 11C-labeled compound) [% ID/g * kg]	Ratio of 2 min/30 min Uptake Values ([1]; mouse brain)	logP (est.) [2]	SMILES
1.6	4.40	2.68					[11CH3]Nc1ccc(-c2nc3ccccc3s2)cc1I
			0.60 ± 0.04	0.39 ± 0.05	1.5	1.9 (est.)	[11CH3]Oc1ccc2nc(-c3ccc(N)cc3)sc2c1
2.91	7.76	2.66					[11CH3]Nc1ccc(-c2nc3ccc(O)cc3s2)cc1I
